Assay results from patent US11180452B2, “Methods and compositions for selectively inhibiting pathogenic microbes” (priority 2019, dated 2021).

Experiments:
NoSpin HepaRG cells = assay: HepaRG cytotoxicity, MTT assay EC50; format: cell-based; conditions: Homo sapiens, cytotoxicity EC50, Table 9
Procedure: Additionally, the antimicrobial compounds were analyzed for cytotoxicity. […] We utilized the standard MTT assay (Promega CellTiter 96) and GraphPad Prism 7 software to determine EC50 values for each analogue. Briefly, 20,000 HepG2 cells in 200 μl of the ATCC recommended media were seeded in each well of a 96-well plate with a moisture barrier created in the outermost wells. The cells were allowed to attach overnight at 37° C., and then observed under phase contrast microscopy for proper morphological characteristics. […] Once incubations were complete, the spectrophotometric absorbance of the samples was measured at a wavelength of 595 nm. […] For the HepaRG assay, NoSpin HepaRG™ cells (Lonza, cat #NSHPRG) were thawed and plated with 20,000 cells per well. They were allowed to attach for 4 h (optimal DME profile per Lonza's testing) before dosing following the identical protocol as above.

Bacillus subtilis = Bacillus subtilis MIC / MBC; format: cell-based; conditions: for MIC: Bacillus subtilis
Candida glabrata = Candida glabrata MIC / MFC; format: cell-based; conditions: Nakaseomyces glabratus
C. albicans = assay: Candida albicans MIC / MFC; format: cell-based; conditions: C. albicans strain #762
[1] = system: pathogens to skin commensals
[2] = system: pathogens T. rubrum and S. Aureus over commensal microbes R. mucosa and S. epidermidis; conditions: FIGS. 5A-5B
[3] = C. glabrata strain #584 (Table 7)
[4] = Candida glabrata #584 (Table 2)

Structure (SMILES): Cc1[nH]c2ccccc2c1Sc1ccc(Br)cc1 [Compound 172C, 3-((4-bromophenyl)thio)-2-methyl-1H-indole]
- EC50 (NoSpin HepaRG cells): 26.8 µg/mL (≈ 84.2 µM)

Structure (SMILES): Brc1ccc(Sc2c[nH]c3cccc(Br)c23)cc1 [Compound 174D, 4-bromo-3-((4-bromophenyl)thio)-1H-indole]
- MBC (Bacillus subtilis; Bacillus subtilis NRRL: B-571, minimum bactericidal concentration): 3.13 µg/mL (≈ 8.17 µM)
- MIC (Candida glabrata; [3]): 3.13 µg/mL (≈ 8.17 µM)
- MIC (Candida glabrata; [4]): 3.13 µg/mL (≈ 8.17 µM)
- MIC (C. albicans): 3.13 µg/mL (≈ 8.17 µM)

Structure (SMILES): Nc1ccccc1Sc1c[nH]c2ccc(Br)cc12 [Compound 174M, 2-((5-bromo-1H-indol-3-yl)thio)aniline]
- Selectivity Pathogens to commensal [1]: 8−>55.5

Structure (SMILES): Brc1ccc(Sc2c[nH]c3ccccc23)cc1 [Compound 156K, 3-((4-bromophenyl)thio)-1H-indole]
- Selectivity Pathogens to commensal [1]: 16−>55.5
- selectivity for pathogenic over commensal microbes on polyester fabric [2]: inhibits the pathogens T. rubrum and S. Aureus over commensal microbes R. mucosa and S. epidermidis

Structure (SMILES): Brc1ccc2[nH]cc(Sc3ccccc3Br)c2c1 [Compound 174I, 5-bromo-3-((2-bromophenyl)thio)-1H-indole]
- MIC (Bacillus subtilis; read-out: Bacillus subtilis MIC, strain B-571 (Table 4)): 3.13 µg/mL (≈ 8.17 µM)
- MIC (Bacillus subtilis; read-out: Bacillus subtilis MIC, strain B-1985): 3.13 µg/mL (≈ 8.17 µM)
- MIC (Bacillus subtilis; read-out: Bacillus subtilis MIC, strain B-3665): 3.13 µg/mL (≈ 8.17 µM)
- MIC (Bacillus subtilis; read-out: Bacillus subtilis MIC, strain B-14322): 3.13 µg/mL (≈ 8.17 µM)
- MIC (Bacillus subtilis; read-out: Bacillus subtilis MIC, strain B-41090): 3.13 µg/mL (≈ 8.17 µM)
- MIC (Bacillus subtilis; read-out: Bacillus subtilis MIC, strain B-41581): 3.13 µg/mL (≈ 8.17 µM)
- MIC (Bacillus subtilis; read-out: Bacillus subtilis MIC, strain BD-594): 3.13 µg/mL (≈ 8.17 µM)
- MIC (Candida glabrata; [3]): 3.13 µg/mL (≈ 8.17 µM)
- MIC (Candida glabrata; [4]): 3.13 µg/mL (≈ 8.17 µM)
- MIC (C. albicans): 3.13 µg/mL (≈ 8.17 µM)

Structure (SMILES): Oc1ccc(Sc2c[nH]c3ccccc23)cc1 [Compound 156I, 4-((1H-indol-3-yl)thio)phenol]
- Selectivity Pathogens to commensal [1]: >4
- selectivity for pathogenic over commensal microbes on polyester fabric [2]: selectively inhibits pathogens T. rubrum over commensal microbes R. mucosa and S. epidermidis

Values after ≈ are worked out from the molar mass of the structure shown. Where two headings read alike, the source gives them in different places.
